Assay [1] concerns retinal inflammation. Description: Mouse EAU model, histopathology (H&E) and histological score. It counts as in vivo, C57BL/6J mice. The note with it: ALM201 3 mg/kg; Dexamethasone 0.5 mg/kg; Dexamethasone 0.5 mg/kg+ALM201 0.3 mg/kg. From the text: On day 24 p.i., fundus images were taken from all experimental mice using the TEFI system. Mice were then sacrificed by CO2 inhalation and eyes were carefully removed. All eyes were fixed in 2.5% (w/v) glutaraldehyde (Agar Scientific Ltd, Cambridge, UK) for 2 days at room temperature. Eyes were embedded in paraffin for standard H&E staining. Histological scores of retinal inflammation were graded using a standard scoring system described previously (Dick A. D., Cheng Y. F., Liversidge J., Forrester J. V., 1994. Immunomodulation of experimental autoimmune uveoretinitis: a model of tolerance induction with retinal antigens. Eye 8 (Pt 1), 52-59, incorporated herein by reference). Retinal sections from at least three different layers from each eye were used for histopathological analysis. The average score from three layers was used as the final pathological score of the eye.

The subject of assay [2] is retinal inflammation. Description: Mouse experimental autoimmune uveitis (EAU) model, clinical score from fundus images (TEFI). Conditions: day 24 p.i.; ALM201 3 mg/kg; Dexamethasone 0.5 mg/kg; ALM201 0.3 mg/kg+Dexamethasone 0.5 mg/kg.

Consider 1 sequence from patent US20190231847A1, “TREATMENT OF OCULAR DISEASE” (priority 2016, published 2019).

For “IRQQPRDPPTETLELEVSPDPAS (listed as Homo Sapiens) [ALM201]”, in the assay with retinal inflammation [1], the “Retinal histology in eyes with mild inflammation prior to treatment” value was “only few infiltrating cells were observed and retinal structures including POS were largely preserved”; the “Retinal histology in eyes with severe inflammation prior to treatment” value was “a few infiltrating cells with retinal scars were observed”. Further, the “Large infiltrates around retinal blood vessels in fundus images” value in the assay on retinal inflammation [2] is “rarely observed”.
